In patent US20080188508A1, “Methods and Therapies for Potentiating a Therapeutic Action of an Opioid Receptor Agonist and Inhibiting and/or Reversing Tolerance to Opioid Receptor Agonists” (priority 2007, published 2008):
Where two headings read alike, the source gives them in different places.

Assays:
[1] = test system: CGRP-immunoreactivity in the spinal dorsal horn; conditions: for reduction of mean optical density of CGRP compared to the 10 day morphine-only treated group: morphine with AM-251 3.2 μg on days 6-10
Sprague Dawley rats [2] = conditions: for morphine antinociception restored, % of the original analgesic response: opioid tolerant animals
Sprague Dawley rats [3] = conditions: for morphine antinociception restored, % of the original analgesic response: opioid tolerant animals; remark: listed apart in the source
Sprague Dawley rats [4] = test system: Sprague Dawley rats
[5] = test system: CGRP-immunoreactive neurons in adult rat dorsal root ganglion cultures
[6] = Acute Tolerance, morphine 15 μg, AM-251 3.2 μg i.t.
[7] = Acute Tolerance, morphine 15 μg, AM-251 3.2 μg i.t., relative to saline
[8] = Chronic Tolerance, days 1-5, morphine 15 μg, AM-251 3.2 μg i.t.
[9] = Chronic Tolerance, days 1-5, morphine 15 μg, AM-251 3.2 μg i.t., relative to saline
[10] = Maintenance of Chronic Tolerance: Mor 15 μg D1-5, then D6-10 the labelled treatment (Mor, Mor + AM-251 3.2 μg, or AM-251 3.2 μg)
[11] = Maintenance of Chronic Tolerance: Mor 15 μg D1-5, then D6-10 the labelled treatment, relative to saline/saline
[12] = Acute Tolerance: three i.t. injections over 4 h of Mor 15 μg, AM-251 3.2 μg or both, morphine ED50 from cumulative dose-response the following day
[13] = Chronic Tolerance: daily i.t. days 1-5 of Mor 15 μg, AM-251 3.2 μg or both, morphine ED50 on day 6
[14] = Maintenance of Chronic Tolerance: Mor 15 μg days 1-5, then days 6-10 the labelled treatment (Mor 15 μg, Mor + AM-251 3.2 μg, or AM-251 3.2 μg), morphine ED50 on day 11
[15] = AM-251 1.6 μg co-administered on days 6-10
[16] = AM-251 3.2 μg co-administered on days 6-10

Question: Which results are given for Cc1c(C(=O)NN2CCCCC2)nn(-c2ccc(Cl)cc2Cl)c1-c1ccc(I)cc1 [AM-251, 1-(2,4-dichlorophenyl)-5-(4-iodophenyl)-4-methyl-N-1-piperidinyl-1H-pyrazole-3-carboxamide]?
Answer: effect on basal CGRP-immunoreactivity compared to saline treated control ([1]; AM-251 3.2 μg alone, maintenance paradigm): no effect; effect on CGRP-immunoreactivity ([1]; AM-251 3.2 μg in the absence of morphine for 5-days): no noticeable effect; effect on basal CGRP expression ([1]; AM-251 (1.6 or 3.2 μg) in the absence of morphine): no effect; Deeper Laminae (mean ± s.e.mean), mean optical density of CGRP-immunoreactivity [1, 6]: 67.2 ± 4.1; Superficial Laminae (mean ± s.e.mean), mean optical density of CGRP-immunoreactivity [1, 6]: 142.4 ± 4.2; Relative OD, Deeper Laminae [1, 7]: 0.91; Relative OD, Superficial Laminae [1, 7]: 1.04; Deeper Laminae (mean ± s.e.mean), mean optical density of CGRP-immunoreactivity [1, 8]: 60.4 ± 8.0; Superficial Laminae (mean ± s.e.mean), mean optical density of CGRP-immunoreactivity [1, 8]: 139.9 ± 3.6; Relative OD, Deeper Laminae [1, 9]: 0.95; Relative OD, Superficial Laminae [1, 9]: 1.04; Deeper Laminae (mean ± s.e.mean), mean optical density of CGRP-immunoreactivity [1, 10]: 77.1 ± 2.3; Superficial Laminae (mean ± s.e.mean), mean optical density of CGRP-immunoreactivity [1, 10]: 131.9 ± 7.6; Relative OD, Deeper Laminae [1, 11]: 1.09; Relative OD, Superficial Laminae [1, 11]: 1.03; effect on the increase in CGRP-immunoreactivity in morphine tolerant animals ([1]; co-administration of morphine with AM-251 3.2 μg on days 6-10): partially reversed; effect on the morphine-induced increase in CGRP-immunoreactivity ([1]; co-treatment of morphine with AM-251 3.2 μg, 5 days): suppressed; reduction of mean optical density of CGRP compared to the 10 day morphine-only treated group ([1]; deeper laminae): 9%; reduction of mean optical density of CGRP compared to the 10 day morphine-only treated group ([1]; superficial laminae): 12%; effect on decline in morphine antinociception (chronic tolerance) (Sprague Dawley rats [2]; AM-251 1.6 μg i.t. with morphine, day 4 and day 5): attenuated the decline in morphine antinociception; Tail-flick ED50 (μg) (mean ± s.e.mean) (Sprague Dawley rats [2]; [12]): 5.6 ± 0.1 µg; Tail-flick ED50 (μg) (mean ± s.e.mean) (Sprague Dawley rats [2]; [13]): 6.8 ± 0.7 µg; Tail-flick ED50 (μg) (mean ± s.e.mean) (Sprague Dawley rats [2]; [14]): 6.0 ± 0.2 µg; morphine antinociception restored, % of the original analgesic response (Sprague Dawley rats [2]; [15]): approximately 51%; morphine antinociception restored, % of the original analgesic response (Sprague Dawley rats [2]; [16]): approximately 73%; effect on decline in morphine antinociception (chronic tolerance) (Sprague Dawley rats [3]; AM-251 1.6 μg i.t. with morphine): failed to have a significant effect; Paw-Pressure ED50 (μg) (mean ± s.e.mean) (Sprague Dawley rats [3]; [12]): 4.6 ± 0.6 µg; Paw-Pressure ED50 (μg) (mean ± s.e.mean) (Sprague Dawley rats [3]; [13]): 13.7 ± 0.8 µg; Paw-Pressure ED50 (μg) (mean ± s.e.mean) (Sprague Dawley rats [3]; [14]): 6.2 ± 0.3 µg; morphine antinociception restored, % of the original analgesic response (Sprague Dawley rats [3]; [15]): ~38%; morphine antinociception restored, % of the original analgesic response (Sprague Dawley rats [3]; [16]): ~50%; effect on acute morphine tolerance (loss in morphine antinociception) (Sprague Dawley rats [4]; AM-251 1.6 μg co-administered with i.t. morphine 15 μg at 0, 90 and 180 minutes): attenuated the loss in morphine antinociception; effect on acute morphine tolerance (loss in morphine antinociception) (Sprague Dawley rats [4]; AM-251 3.2 μg co-administered with i.t. morphine 15 μg at 0, 90 and 180 minutes): pronounced inhibition of acute morphine tolerance; effect on development of chronic morphine tolerance (Sprague Dawley rats [4]; AM-251 3.2 μg i.t. co-administered with morphine 15 μg for 5 days, tail-flick and paw-pressure tests): attenuated the development of tolerance; effect on the increase in morphine ED50 value in opioid tolerant animals (Sprague Dawley rats [4]; co-administration of morphine and AM-251 (1.6 or 3.2 μg) on days 6-10): reversed the increase in morphine ED50 value; effect on the morphine-induced increase in CGRP-immunoreactivity ([5]; AM-251 1 μM co-treatment with morphine): No effect; decrease in number of CGRP-immunoreactive neurons compared to morphine-only treated group ([5]; AM-251 5 μM with morphine for 5 days, did not achieve statistical significance): 20%; suppression of the morphine-induced increase in CGRP-immunoreactivity ([5]; AM-251 10 μM co-treatment with morphine for 5 days): 25%; effect on basal CGRP expression in DRG neurons ([5]; AM-251 10 μM in the absence of morphine): no effect
